Patent US20260124309A1, “STAT6 DEGRADERS AND USES THEREOF” (Kymera Therapeutics, Inc., priority 2023, published 2026)
Read-outs that look alike come from different tables or passages of the source.

Amino acid sequences for entries named in this document (tags omitted). Residues count along the entry.
UniProt P42226, whole entry: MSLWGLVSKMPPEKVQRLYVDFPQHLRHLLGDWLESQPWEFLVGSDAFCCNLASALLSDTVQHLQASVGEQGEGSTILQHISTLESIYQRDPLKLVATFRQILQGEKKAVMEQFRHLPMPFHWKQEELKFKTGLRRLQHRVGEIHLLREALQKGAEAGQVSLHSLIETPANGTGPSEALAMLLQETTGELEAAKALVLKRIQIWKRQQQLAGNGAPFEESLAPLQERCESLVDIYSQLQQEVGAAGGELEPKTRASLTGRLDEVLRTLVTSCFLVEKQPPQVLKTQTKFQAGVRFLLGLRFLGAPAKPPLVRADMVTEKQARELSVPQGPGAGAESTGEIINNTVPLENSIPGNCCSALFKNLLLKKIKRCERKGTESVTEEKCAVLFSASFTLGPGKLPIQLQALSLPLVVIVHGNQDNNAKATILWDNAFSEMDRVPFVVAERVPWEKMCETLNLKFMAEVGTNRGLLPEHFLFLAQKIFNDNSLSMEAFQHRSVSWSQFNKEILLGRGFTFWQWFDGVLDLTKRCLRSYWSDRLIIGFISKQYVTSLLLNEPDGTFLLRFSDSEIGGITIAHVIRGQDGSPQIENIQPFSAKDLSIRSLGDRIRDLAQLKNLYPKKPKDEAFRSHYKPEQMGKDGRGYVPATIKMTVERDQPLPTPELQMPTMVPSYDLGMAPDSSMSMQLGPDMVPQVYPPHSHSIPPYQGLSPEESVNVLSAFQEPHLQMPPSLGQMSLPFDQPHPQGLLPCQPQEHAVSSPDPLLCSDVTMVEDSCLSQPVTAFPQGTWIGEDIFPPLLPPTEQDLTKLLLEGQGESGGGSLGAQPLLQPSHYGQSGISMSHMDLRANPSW
UniProt P42226, 123-632 limits assumed: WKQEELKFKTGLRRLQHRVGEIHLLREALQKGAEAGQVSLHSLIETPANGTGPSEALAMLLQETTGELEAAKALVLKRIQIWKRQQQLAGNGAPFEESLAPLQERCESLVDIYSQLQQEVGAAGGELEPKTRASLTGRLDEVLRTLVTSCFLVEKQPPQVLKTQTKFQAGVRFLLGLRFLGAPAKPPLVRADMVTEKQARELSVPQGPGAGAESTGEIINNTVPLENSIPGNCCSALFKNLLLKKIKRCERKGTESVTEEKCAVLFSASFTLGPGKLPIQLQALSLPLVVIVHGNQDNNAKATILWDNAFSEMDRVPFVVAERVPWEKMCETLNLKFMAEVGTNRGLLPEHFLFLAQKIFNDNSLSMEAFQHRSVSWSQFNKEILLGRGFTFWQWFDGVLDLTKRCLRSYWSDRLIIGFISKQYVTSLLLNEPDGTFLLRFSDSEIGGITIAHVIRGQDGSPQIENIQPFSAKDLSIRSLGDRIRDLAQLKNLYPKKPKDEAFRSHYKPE

Key:
[1] = biological target: biotinylated truncated STAT6 (123-632)-avi (Homo sapiens, UniProt P42226); assay: STAT6 HTRF binding assay; settings: read-out: STAT6 HTRF: Average IC50, 0.15 nM biotinylated truncated STAT6 (123-632)-avi, 20 nM fluorescein-labeled probe
STAT6 = STAT6 (Homo sapiens, UniProt P42226); assay: STAT6 MSD degradation in A549 cells; settings: for DC50: read-out: STAT6 MSD degradation DC50 (nM) 24 h
Method in brief: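 A549 cells treated with a 9-point 1:3 series (top up to 10 uM) for 4 to 24 hours at 37° C., then lysed in RIPA. STAT6 quantified by sandwich MSD electrochemiluminescence immunoassay. DC50 and Dmax from four-parameter nonlinear fit, reported as letter-code bins.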

| Compound | IC50 ([1]; HTRF binding) [nM] | STAT6 MSD degradation Dmax % 24 h (STAT6) | DC50 (STAT6) [nM] | IC50 ([1]; 30 minutes at room temperature) [nM] |
| --- | --- | --- | --- | --- |
| COc1cc(C2CCN(c3cc(F)c(-c4cc(C5=CCCN(C(=O)CCn6cccn6)C5)c(F)c5[nH]c(C(=O)N(C)C)cc45)cc3F)CC2)c(F)cc1NC1CCC(=O)NC1=O (stereo not drawn) | 100 to 1000 | A (A (>90%)) | < 1 |  |
| COc1cc([C@H]2CC[C@@H](c3ccc(-c4cc(C5=CCCN(C(=O)CCn6cccn6)C5)c(F)c5[nH]c(C(=O)N(C)C)cc45)c(F)c3)CC2)c(F)cc1NC1CCC(=O)NC1=O (stereo partly drawn) | 100 to 1000 | B (B (>70-90%)) | 1 to 10 |  |
| CN(C)C(=O)c1cc2c(-c3ccc(C#Cc4ccc(NC5CCC(=O)NC5=O)cc4F)cc3)cc(C3=CCCN(C(=O)CCn4ccnn4)C3)c(F)c2[nH]1 (stereo not drawn) | < 100 | B (B (>70-90%)) | < 1 |  |
| CN(C)C(=O)c1cc2c(-c3ccc(N4CCN(c5ccc(NC6CCC(=O)NC6=O)cc5F)CC4)c(F)c3)cc(C3=CCCN(C(=O)CCn4cccn4)C3)c(F)c2[nH]1 (stereo not drawn) | < 100 | B (B (>70-90%)) | 1 to 10 |  |
| COc1cc(N2CCN(c3ccc(-c4cc(C5=CCCN(C(=O)CCn6cccn6)C5)c(F)c5[nH]c(C(=O)N(C)C)cc45)cc3F)CC2)c(F)cc1NC1CCC(=O)NC1=O (stereo not drawn) | < 100 | B (B (>70-90%)) | < 1 |  |
| COc1cc(C2CCN(c3cc(F)c(-c4cc([C@H]5CCCN(C(=O)CCn6cccn6)C5)c(F)c5[nH]c(C(=O)N(C)C)cc45)cc3F)CC2)c(F)cc1NC1CCC(=O)NC1=O (stereo partly drawn) | 1000 to 10000 | A (A (>90%)) | 1 to 10 |  |
| COc1cc(N2CCC(N3CCN(c4cc(F)c(-c5cc(C6=CCCN(C(=O)CCn7cccn7)C6)c(F)c6[nH]c(C(=O)N(C)C)cc56)cc4F)CC3)CC2)c(F)cc1NC1CCC(=O)NC1=O (stereo not drawn) | < 100 | A (A (>90%)) | < 1 |  |
| Cc1nn(C2CCC(=O)NC2=O)c2cccc(N3CCC(c4ccc(-c5cc([C@H]6CCCN(C(=O)CCn7cccn7)C6)c(F)c6[nH]c(C(=O)N(C)C)cc56)c(F)c4F)CC3)c12 (stereo partly drawn) | 100 to 1000 | A (A (>90%)) | 1 to 10 |  |
| COc1cc(N2CCN(CCc3ccc(C4CCC(=O)NC4=O)cc3F)CC2)ccc1-c1cc(C2=CCCN(C(=O)CCn3cccn3)C2)c(F)c2cc(C(=O)N(C)C)oc12 (stereo not drawn) |  | A (A (>90%)) | < 1 | < 100 |
| CN(C)C(=O)c1cc2c(-c3ccc(C4CCN(c5ccc(OC6CCC(=O)NC6=O)cc5F)CC4)cc3)cc(C3=CCCN(C(=O)CCn4cccn4)C3)c(F)c2[nH]1 (stereo not drawn) | < 100 | A (A (>90%)) | 1 to 10 |  |
| COc1cc(N2CC[C@H](c3ccc(-c4cc(C5=CCCN(C(=O)CCn6cccn6)C5)c(F)c5[nH]c(C(=O)N(C)C)cc45)c(C)c3)C(F)(F)C2)c(F)cc1NC1CCC(=O)NC1=O (stereo partly drawn) | < 100 | A (A (>90%)) | 1 to 10 |  |
| COc1cc(N2CCN(c3cc(F)c(-c4cc([C@H]5CCCN(C(=O)CCn6cccn6)C5)c(F)c5[nH]c(C(=O)N(C)C)cc45)cc3F)CC2)c(F)cc1NC1CCC(=O)NC1=O (stereo partly drawn) | < 100 | B (B (>70-90%)) | 1 to 10 |  |
| COc1cc([C@H]2CC[C@@H](c3ccc(-c4cc(C5=CCCN(C(=O)CCn6cccn6)C5)c(F)c5[nH]c(C(=O)N(C)C)cc45)cc3)CC2)c(F)cc1NC1CCC(=O)NC1=O (relative stereo) | 100 to 1000 | B (B (>70-90%)) | 1 to 10 |  |
| COc1cc(N2CCN(CCc3cccc4c3n(C)c(=O)n4C3CCC(=O)NC3=O)CC2)ccc1-c1cc(C(=O)N(C)C)cc2cc(C3=CCCN(C(C)=O)C3)[nH]c12 (stereo not drawn) | 100 to 1000 | B (B (>70-90%)) | 1 to 10 |  |
| COc1cc(CCN2CCN(c3ccc(C4CCC(=O)NC4=O)cc3F)CC2)ccc1-c1cc(C2=CCCN(C(=O)CCn3ccnn3)C2)c(F)c2[nH]c(C(=O)N(C)C)cc12 (stereo not drawn) | < 100 | A (A (>90%)) | < 1 |  |
| CN(C(=O)c1cc2c(-c3ccc(N4CCN(CCCc5cccc6c5n(C)c(=O)n6C5CCC(=O)NC5=O)CC4)cc3)cc([C@H]3CCCN(C(=O)CCn4cccn4)C3)c(F)c2[nH]1)C1CC1 (stereo partly drawn) | < 100 | A (A (>90%)) | < 1 |  |
| COc1cc(N2CCC3(CCN(c4cc(F)c(-c5cc(C6=CCCN(C(=O)CCn7cccn7)C6)c(F)c6[nH]c(C(=O)N(C)C)cc56)cc4F)CC3)CC2)c(F)cc1NC1CCC(=O)NC1=O (stereo not drawn) | < 100 | A (A (>90%)) | 1 to 10 |  |
| CN(C)C(=O)c1cc2c(-c3ccc(C4CCN(c5cc(F)c(C6CCC(=O)NC6=O)cc5F)CC4)cc3)cc([C@H]3CCCN(C(=O)CCn4cccn4)C3)c(F)c2[nH]1 (stereo partly drawn) | 100 to 1000 | A (A (>90%)) | 1 to 10 |  |
| CC(=O)N1CCC=C(c2cc(-c3ccc(N4CCN(CCc5cccc6c5n(C)c(=O)n6C5CCC(=O)NC5=O)CC4)cc3C(C)(F)F)c3cc(C(=O)N(C)C)[nH]c3c2F)C1 (stereo not drawn) | 100 to 1000 | A (A (>90%)) | < 1 |  |
| COc1cc(N2CCC(N3CCN(c4ccc(-c5cc(C6=CCCN(C(=O)CCn7cccn7)C6)c(F)c6[nH]c(C(=O)N(C)C)cc56)cc4)CC3)CC2)c(F)cc1NC1CCC(=O)NC1=O (stereo not drawn) | < 100 | A (A (>90%)) | < 1 |  |
| CN(C)C(=O)c1cc2c(-c3ccc(N4CCN(CCc5ccc(C6CCC(=O)NC6=O)cc5F)CC4)cc3OC(F)(F)F)cc(C3=CCCN(C(=O)CCn4ccnn4)C3)c(F)c2[nH]1 (stereo not drawn) | < 100 | A (A (>90%)) | < 1 |  |
| COc1cc(N2CCN(c3cc(Cl)c(-c4cc(C5=CCCN(C(=O)CCn6cccn6)C5)c(F)c5[nH]c(C(=O)N(C)C)cc45)cc3F)CC2)c(F)cc1NC1CCC(=O)NC1=O (stereo not drawn) | < 100 | B (B (>70-90%)) | 1 to 10 |  |
| COc1cc(N2CCN(CCc3ccc(C4CCC(=O)NC4=O)cc3F)CC2=O)ccc1-c1cc(C2=CCCN(C(=O)CCn3ccnn3)C2)c(F)c2[nH]c(C(=O)N(C)C)cc12 (stereo not drawn) | < 100 | A (A (>90%)) | < 1 |  |
| COc1cc(N2CCN(C3CCN(c4ccc(-c5cc(C6=CCCN(C(=O)CCn7cccn7)C6)c(F)c6[nH]c(C(=O)N(C)C)cc56)c(F)c4)CC3)CC2)c(F)cc1NC1CCC(=O)NC1=O (stereo not drawn) | < 100 | A (A (>90%)) | < 1 |  |
| COc1cc(N2CCN(c3ccc(-c4cc(C5=CCCN(C(=O)CCn6cccn6)C5)c(F)c5[nH]c(C(=O)N(C)C)cc45)c(F)c3)CC2)c(F)cc1NC1CCC(=O)NC1=O (stereo not drawn) | < 100 | B (B (>70-90%)) | 1 to 10 |  |
| CC(=O)N1CCC=C(c2cc(-c3ccc(N4CCN(CCc5cccc6c5n(C)c(=O)n6C5CCC(=O)NC5=O)CC4)cc3Cl)c3cc(C(=O)N(C)C)[nH]c3c2F)C1 (stereo not drawn) | 100 to 1000 | A (A (>90%)) | < 1 |  |
| COc1cc(N2CCN(CCc3cccc4c3n(C)c(=O)n4C3CCC(=O)NC3=O)CC2)ccc1-c1cc(C(=O)N(C)C)cc2cc(C3=CCCN(C(=O)CCn4ccnn4)C3)[nH]c12 (stereo not drawn) | < 100 | A (A (>90%)) | 1 to 10 |  |
